Target: T1, RFWD3^WD40 (human, UniProt Q6PCD5 439-774)
T1 construct: RFWD3 (RING finger and WD repeat domain 3), human, C-terminal WD40 domain; also called WD40 domain of RFWD3 (RING finger and WD repeat domain 3); source: provided by Dr. Yufeng Tong; purified
T1 sequence (looked up): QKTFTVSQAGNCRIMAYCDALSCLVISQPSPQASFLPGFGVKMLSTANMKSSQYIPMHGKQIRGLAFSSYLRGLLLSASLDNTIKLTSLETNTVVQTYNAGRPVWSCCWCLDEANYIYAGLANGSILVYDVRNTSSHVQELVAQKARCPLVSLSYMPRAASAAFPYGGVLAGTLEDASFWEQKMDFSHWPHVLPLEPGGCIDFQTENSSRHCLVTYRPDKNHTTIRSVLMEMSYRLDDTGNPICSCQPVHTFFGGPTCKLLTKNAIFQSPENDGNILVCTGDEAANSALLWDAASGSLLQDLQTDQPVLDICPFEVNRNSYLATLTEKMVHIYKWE
Assay: ELISA; E3 ligase domain (1 µM) immobilised on MaxiSorp plates overnight at 4 °C; serial dilutions of FLAG-tagged UbV, wild type Ub or GST-tagged RPA2 (0-4 µM, 24 points, 1:2) incubated 20 min at room temperature; detected with anti-FLAG or anti-GST HRP conjugate; n = 3
Details: both partners purified

B1: GST-tagged RPA2 (natural protein, UniProt P15927 1-270, looked up)
chain: MWNSGFESYGSSSYGGAGGYTQSPGGFGSPAPSQAEKKSRARAQHIVPCTISQLLSATLVDEVFRIGNVEISQVTIVGIIRHAEKAPTNIVYKIDDMTAAPMDVRQWVDTDDTSSENTVVPPETYVKVAGHLRSFQNKKSLVAFKIMPLEDMNEFTTHILEVINAHMVLSKANSQPSAGRAPISNPGMSEAGNFGGNSFMPANGLTVAQNQVLNLIKACPRPEGLNFQDLKNQLKHMSVSSIKQAVDFLSNEGHIYSTVDDDHFKSTDAE
notes: RPA2 (replication protein A subunit, RPA32); also called RPA32
B1 gave an EC50 of 0.152 µM.

From paper PMC9029692, “Targeted Degradation of 53BP1 Using Ubiquitin Variant Induced Proximity” (Biomolecules, 2022)
